# System: rats
# Assay: Open field (OF) test in rats, locomotor/exploratory activity
# Type: in vivo, rat
# Settings: 5 mg/kg i.p. 60 min before test, 5-min session, mean ± SEM
smiles,measurement,value
CCOc1ccccc1OC(c1ccccc1)C1CNCCO1 (stereo not shown) [reboxetine],Exploratory activity Ambulation X,221 ± 16
same,Exploratory activity Ambulation Y,220 ± 12
same,Exploratory activity Rearings,84 ± 6
same,Exploratory activity Total distance (cm),2196 ± 74 cm

# Source: publication PMC5748433, “Study on the effect of EMD386088, a 5-HT6 receptor partial agonist, in enhancing the anti-immobility action of some antidepressants in rats” (Naunyn-Schmiedeberg's Archives of Pharmacology, 2017)
